System: CAA amyloid deposits and neuritic plaques
Assay: In vivo live imaging through closed cranial window in aged Tg2576 mice
Conditions: 2 μM superfused through closed cranial window for 5 min

## O=c1ccc2nc3ccc(O)cc3oc-2c1 [Resorufin, 7-hydroxy-3H-phenoxazin-3-one]
  Live fluorescent labeling of amyloid deposits, topical application: intense fluorescent labeling within the walls of the leptomeningeal arteries

From article PMC3259047 (Molecular Neurodegeneration, 2011)
